## Binding of CDR-mutated scFvs to a peptide of the spike HR2 region

Values reported by Engelhart et al. 2022, doi:10.1038/s41597-022-01779-4 (FLAb copy).

The target is the same throughout: PDVDLGDISGINAS, from the HR2 region of SARS-CoV-2 spike.

The variants keep the heavy chain, the linker and the frameworks of Ab-95 (scFv order VH, a 15-residue (Gly4Ser)3 linker, VL).
VH: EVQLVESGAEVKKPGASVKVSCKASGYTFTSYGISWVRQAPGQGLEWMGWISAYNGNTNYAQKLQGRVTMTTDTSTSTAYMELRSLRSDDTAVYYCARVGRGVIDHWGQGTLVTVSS
VL: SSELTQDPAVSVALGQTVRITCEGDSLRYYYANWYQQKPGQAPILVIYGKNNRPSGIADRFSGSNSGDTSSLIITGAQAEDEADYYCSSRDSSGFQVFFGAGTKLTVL

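Phage display of a naive human antibody library on the peptide gave the parent. The library (AAYL52) carries one to three amino acid substitutions per variant, with no insertions or deletions. The assay is AlphaSeq: two haploid yeast populations carry antibody and antigen on their surface. The frequency of each diploid, read from paired DNA barcodes, reflects how well the two displayed proteins bind. The ratio of observed to expected reads was calibrated, replicate by replicate, on BCL2-family standards whose Kd was known from biolayer interferometry. The assay was run in three technical replicates.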

Changes read parent residue, position, new residue, counted from the first residue of the VL shown. Affinities are written as log10 Kd with Kd in nM; a lower number is a better binder. Averages over replicates are reported, and they cover detected replicates only. An entry "nd" has no value in the source: the pair was not observed among the diploids in that replicate. This suggests poor binding but is not conclusive.

changes | replicates, log10 nM | log10 Kd (nM), mean | control signals
Y31P+N33C+P54V | 2.53 / 2.90 / 3.03 | 2.82 | 5 of 9 (4.04)
G24I+S26T+S55A | nd / 2.95 / nd | 2.95 | 0 of 9
Y29R+Y30T+D91T | 3.17 / 2.89 / 3.39 | 3.15 | 6 of 9 (4.05)
R28S+R53S+V97H | 3.82 / 3.25 / nd | 3.53 | 5 of 9 (4.27)
L27Y+G94R+F98K | nd / 3.47 / nd | 3.47 | 1 of 9 (4.49)
G24L+N33C+S89E | nd / 3.27 / nd | 3.27 | 4 of 9 (4.61)
N51G+S88A+S89W | 1.86 / 1.77 / 1.07 | 1.57 | 0 of 9
R28I+R53Y+Q96H | 3.62 / 4.11 / nd | 3.86 | 3 of 9 (3.89)
L27Q+Y31T | 2.66 / 2.75 / 3.13 | 2.85 | 3 of 9 (4.10)
K50G+R53L+V97P | 3.43 / 3.78 / 4.28 | 3.83 | 2 of 9 (3.84)
L27I+G49A | 4.11 / nd / nd | 4.11 | 1 of 9 (3.36)
S26E+S55R+G94C | 4.46 / nd / nd | 4.46 | 1 of 9 (5.53)
E23K+D91S | 1.70 / 1.71 / 1.45 | 1.62 | 3 of 9 (5.09)
E23W+L27W+R28Q | nd / nd / nd | nd | 1 of 9 (4.64)
L27K+N52L+V97G | nd / 4.32 / nd | 4.32 | 3 of 9 (4.11)
Y29W+Y31M+F95Q | 2.42 / 2.18 / 2.32 | 2.31 | 4 of 9 (3.41)
Y29A+K50V+S88G | 3.23 / 3.52 / 3.65 | 3.46 | 1 of 9 (3.74)
Y29W+R53D+S88N | 4.46 / 3.44 / 3.84 | 3.91 | 4 of 9 (3.58)
G24W+S55I+G94P | 4.64 / nd / nd | 4.64 | 1 of 9 (3.98)
E23H+Y30Q+V97M | 0.71 / 0.56 / -0.18 | 0.37 | 4 of 9 (3.62)
A32M+K50D+F95C | 2.81 / 2.90 / 4.10 | 3.27 | 2 of 9 (3.32)
N51E+R53E+Q96Y | 3.50 / 4.66 / 3.62 | 3.92 | 5 of 9 (3.53)
R28F+A32Y | 3.48 / 2.70 / 3.02 | 3.06 | 2 of 9 (4.27)
Y29N+N52A+D91F | 2.73 / 3.43 / 3.13 | 3.10 | 2 of 9 (4.76)
S89L+G94V+Q96P | 2.56 / 2.43 / 1.90 | 2.30 | 6 of 9 (3.45)
R53L+S88G+S92P | 5.13 / 4.38 / 2.11 | 3.87 | 4 of 9 (4.03)
Y29N+P54M+F98H | 2.79 / 2.30 / 2.35 | 2.48 | 2 of 9 (4.34)
E23R+N51K+R90L | nd / nd / 3.19 | 3.19 | 3 of 9 (3.73)
G24R+F95Y+Q96S | 3.89 / 3.29 / nd | 3.59 | 2 of 9 (4.89)
G94C+V97L+F98R | 5.63 / nd / 3.97 | 4.80 | 5 of 9 (4.51)
D91A+G94A | 4.79 / nd / nd | 4.79 | 2 of 9 (3.65)
E23L+Y29E+Q96I | nd / nd / nd | nd | 0 of 9
K50V+R53G+S93I | 3.87 / 4.68 / nd | 4.27 | 3 of 9 (3.62)
L27Q+D91L+F95H | nd / 5.40 / 4.63 | 5.01 | 3 of 9 (4.72)
D25C+R28I+N51R | 4.22 / 3.71 / nd | 3.97 | 3 of 9 (3.95)
A32P+V97P | 2.29 / 2.26 / 1.96 | 2.17 | 5 of 9 (3.89)
E23C+S26Q+Y29M | 4.38 / nd / nd | 4.38 | 3 of 9 (3.87)
D25F+S26P+K50P | 2.24 / 3.68 / nd | 2.96 | 1 of 9 (2.79)
D91Q+F95T+Q96C | 3.91 / 3.15 / 3.76 | 3.60 | 1 of 9 (4.81)
R28N+G49R+F98Q | nd / nd / nd | nd | 1 of 9 (2.81)
S26W+Y29M+G49F | 3.86 / 4.64 / 3.71 | 4.07 | 3 of 9 (4.17)
E23W+S26I+D91V | nd / 5.25 / nd | 5.25 | 2 of 9 (4.10)
R28Q+A32K+K50Q | 1.92 / 2.05 / 1.49 | 1.82 | 4 of 9 (3.88)
L27G+V97E | nd / nd / 4.35 | 4.35 | 2 of 9 (4.06)
R28E+S89Q+D91C | 2.52 / 2.95 / 3.23 | 2.90 | 1 of 9 (4.30)
G24A+D91A+F95I | nd / nd / nd | nd | 0 of 9
D25K+S26E+G94I | nd / 4.15 / nd | 4.15 | 1 of 9 (4.44)

The 4 strongest on average among those seen in every replicate, once more:

changes | replicates, log10 nM | log10 Kd (nM), mean | control signals
E23H+Y30Q+V97M | 0.71 / 0.56 / -0.18 | 0.37 | 4 of 9 (3.62)
N51G+S88A+S89W | 1.86 / 1.77 / 1.07 | 1.57 | 0 of 9
E23K+D91S | 1.70 / 1.71 / 1.45 | 1.62 | 3 of 9 (5.09)
R28Q+A32K+K50Q | 1.92 / 2.05 / 1.49 | 1.82 | 4 of 9 (3.88)

Empty control strains, which show no peptide, gave a signal in 28% of pairings with library AAYL52; the median was 3.91 and 95% of these signals were weaker than 2.90. No background was subtracted. The control count says in how many pairings with the empty strains this scFv gave a signal, with their mean in brackets.